Structures are written as SMILES.

Amino acid sequences for entries named in this document (tags omitted).
UniProt P17931, whole entry: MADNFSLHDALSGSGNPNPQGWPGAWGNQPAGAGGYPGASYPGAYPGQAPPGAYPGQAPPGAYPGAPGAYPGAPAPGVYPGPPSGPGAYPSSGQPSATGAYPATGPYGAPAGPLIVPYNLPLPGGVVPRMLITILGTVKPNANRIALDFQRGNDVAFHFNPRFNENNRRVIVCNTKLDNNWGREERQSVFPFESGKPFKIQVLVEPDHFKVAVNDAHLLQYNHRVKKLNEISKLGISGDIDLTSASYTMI

The experiment has as its target His-tagged recombinant human Gal-3 (hGal-3) (Homo sapiens, UniProt P17931). Description: Gal-3 HTRF assay (hGal-3 / B-ASF binding inhibition). To be noted: read-out: hGal-3 IC50; table of Examples 5 to 25. Here is the method: ASSAY BUFFER Composition: 25 mM HEPES, 100 mM NaCl, 0.005% Tween 20, 0.05% BSA prepared in sterile water (all reagents from Sigma).
Positive Control: 100% DMSO (1 μL)+His-tagged hGal-3 (20 μL)+β-ASF (20 μL)+Anti-His Terbium Antibody (5 μL)+Strep d2 Antibody (5 μL).
Negative Control: 100% DMSO (1 μL)+His-tagged hGal-3 (20 μL)+Anti His Terbium Antibody (5 μL)+Strep d2 Aantibody (5 μL).
PROTOCOL: The Gal-3 assays were performed in 384 white Opti plates in three replicates at room temperature with gentle shaking at 250-300 rpm From the original stocks, […] working stock concentrations of His-tagged recombinant human Gal-3 (hGal-3) and that of B-ASF were prepared. From the working stock, 20 μL of hGal-3 (15 nM) and 20 μL B-ASF (15 nM) were added to the plates. In Negative Control, only hGal-3 was added. A concentration range of 50× working stocks were prepared for the compounds in 100% DMSO. Aliquots of 1 μL of the compounds were added to the wells and pre-incubated with 20 μL hGal-3 per well for 30 minutes Then 20 μL B-ASF were added and incubated for another 1 hour. […] The assay signal was detected using HTRF screen protocol (Excitation wavelength=340 nm, emission wavelength=615 nm/665 nm) on Envision 2104 Multilabel Reader. Data analysed using Toolset and Curve Master. […]
On the technique in general: TR-FRET usually uses a lanthanide donor and a delayed reading to cut background.

For `Cc1nc([C@@H]2O[C@H](CO)[C@H](O)[C@H](n3cc(-c4cc(F)c(Cl)c(F)c4)nn3)[C@H]2OCC(=O)C2CCC2)n(-c2cc(Cl)ccc2C(F)(F)F)n1`, the IC50 came to 28 nM. For `Cc1nc([C@@H]2O[C@H](CO)[C@H](O)[C@H](n3cc(-c4ccc(Cl)c(F)c4F)nn3)[C@H]2O)n(-c2cc(Cl)ccc2OC(F)(F)F)n1`, the IC50 was determined as 17 nM.

The IC50 is the concentration needed to halve the response being measured.

The record behind these values is US12275719B2, “Small molecule inhibitors of galectin-3” (BRISTOL-MYERS SQUIBB COMPANY, priority 2019, dated 2025).
